Measured values as given in patent publication US20110028686A1, “Protein binding miniature proteins” (Yale University, priority 2000, published 2011).

Molecular target: catalytic subunit of cAMP-dependent protein kinase (PKA)
Test: cell-based or functional assay

Substance	IC50, inhibition of PKA phosphotransferase activity [nM]
PKI-K252a (from UniProt P61925 6-25) (peptide)	221
PKI^A21C alkylated with bromoacetamide (from UniProt P61925 6-25) (peptide)	> 1000
